Percent of the level associated with interphase FAK data for one substance are collected here from PMC2132894.

Protein sequences, listed by entry. Tags and fused reporters are not part of them.
UniProt O35346, whole entry: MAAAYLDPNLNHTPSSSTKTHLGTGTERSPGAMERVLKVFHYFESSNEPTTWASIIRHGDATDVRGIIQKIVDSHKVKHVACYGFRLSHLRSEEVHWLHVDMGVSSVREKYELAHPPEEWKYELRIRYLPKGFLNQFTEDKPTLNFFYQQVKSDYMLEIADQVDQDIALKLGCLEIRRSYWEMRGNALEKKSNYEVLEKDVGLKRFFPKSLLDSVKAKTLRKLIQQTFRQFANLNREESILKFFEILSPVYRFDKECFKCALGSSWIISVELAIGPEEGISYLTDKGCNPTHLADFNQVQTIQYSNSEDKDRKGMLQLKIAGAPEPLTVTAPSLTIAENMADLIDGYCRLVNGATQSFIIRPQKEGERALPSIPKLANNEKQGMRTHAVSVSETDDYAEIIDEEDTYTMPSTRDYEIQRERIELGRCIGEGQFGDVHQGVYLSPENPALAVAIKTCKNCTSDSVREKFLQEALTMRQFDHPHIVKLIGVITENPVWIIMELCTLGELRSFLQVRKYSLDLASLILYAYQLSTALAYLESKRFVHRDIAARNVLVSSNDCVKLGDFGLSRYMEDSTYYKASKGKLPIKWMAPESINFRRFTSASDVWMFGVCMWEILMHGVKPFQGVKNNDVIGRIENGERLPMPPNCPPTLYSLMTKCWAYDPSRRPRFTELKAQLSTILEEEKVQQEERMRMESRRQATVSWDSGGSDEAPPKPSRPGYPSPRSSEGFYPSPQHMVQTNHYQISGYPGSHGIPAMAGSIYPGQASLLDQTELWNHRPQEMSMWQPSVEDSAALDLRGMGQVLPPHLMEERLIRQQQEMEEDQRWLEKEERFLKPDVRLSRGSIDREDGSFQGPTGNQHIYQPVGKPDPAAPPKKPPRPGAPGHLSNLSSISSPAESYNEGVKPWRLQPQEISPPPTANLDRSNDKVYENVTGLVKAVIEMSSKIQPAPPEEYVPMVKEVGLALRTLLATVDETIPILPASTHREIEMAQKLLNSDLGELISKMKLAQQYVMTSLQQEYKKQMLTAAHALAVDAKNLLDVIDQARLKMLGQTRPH

Experiment [1] deals with focal adhesion kinase (FAK) of trypsinized cells (rat (endogenous in REF-2A)) (UniProt O35346). In words: co-IP.
Experiment [2] deals with focal adhesion kinase (FAK) of mitotic cells (rat (endogenous in REF-2A)) (UniProt O35346). Description: co-IP.

On to “c-Src (from UniProt Q9WUD9-1 1-536) (natural protein)”, for which the percent of the level associated with interphase FAK worked out at 70% in experiment [1] and 13% in experiment [2].
